Results published in paper PMC7395068, “The evolution of strategies to minimise the risk of human drug-induced liver injury (DILI) in drug discovery and development” (Archives of Toxicology, 2020).

Key:
[1] = Plasma free fraction (fu) and unbound Cmax (Cmax,u); assay type: in vitro ADME, human; conditions: unbound plasma Cmax
[2] = system: primary human hepatocytes, NIH3T3 fibroblasts, BSEP, CYP3A4; conditions: In vitro Assay; ref Schadt 2015; cited from earlier work
[3] = system: PHH; conditions: 2D PHH, ATP, IC50 < 100 × Cmax.tot; ref Proctor et al. 2017; cited from earlier work
[4] = system: hLiMTs; conditions: ATP, IC50 < 100 × Cmax.tot, ref Proctor et al. 2017; cited from earlier work
[5] = cited from earlier work

CS(=O)(=O)CCNCc1ccc(-c2ccc3ncnc(Nc4ccc(OCc5cccc(F)c5)c(Cl)c4)c3c2)o1 [lapatinib]
Human plasma Cmax,u [1]: 116 nM

NC(=O)N1c2ccccc2CC(=O)c2ccccc21 [oxcarbazeptin]
Cellular toxicity (3T3 cells) [2]: -VE
Combined Assay [2]: +VE
GSH adduct HML [2]: +VE
Hepatocyte cellular toxicity [2]: -VE
MitoTox 3T3 [2]: -VE
TDI CYP3A4 [2]: -VE
hBSEP inhibition [2]: -VE

C1CCC(C(CC2CCCCN2)C2CCCCC2)CC1 (stereo not shown) [perhexiline]
Human plasma Cmax,u [1]: 216 nM
PHH/100xCmax, Proctor (2017) [3]: +VE (IC50 < 100 × Cmax.tot)
hLiMTs/100xCmax, Proctor (2017) [4]: +VE (IC50 < 100 × Cmax.tot)

benzylpenicilloyl polylysine
DILI +VE (5-8), DILI -VE (-4) ([5]; binary DILI call, ref Chen 2016): -VE

cetuximab
DILI +VE (5-8), DILI -VE (-4) ([5]; in vivo): -VE

choriogonadotropin alfa
DILI +VE (5-8), DILI -VE (-4) ([5]; in vivo): -VE
DILI severity category ([5]; in vivo): Ambiguous DILI-concern

eculizumab
DILI +VE (5-8), DILI -VE (-4) ([5]; in vivo): -VE

follitropin alfa/beta
DILI +VE (5-8), DILI -VE (-4) ([5]; in vivo): -VE
DILI severity category ([5]; in vivo): Ambiguous DILI-concern

interferon alfa-2b
DILI +VE (5-8), DILI -VE (-4) ([5]; in vivo): +VE

interferon beta-1a
DILI +VE (5-8), DILI -VE (-4) ([5]; in vivo): +VE

peginterferon alfa-2b
DILI +VE (5-8), DILI -VE (-4) ([5]; in vivo): +VE

thyrotropin alfa
DILI +VE (5-8), DILI -VE (-4) ([5]; in vivo): -VE

trastuzumab
DILI +VE (5-8), DILI -VE (-4) ([5]; in vivo): +VE
DILI severity category ([5]; in vivo): vLess-DILI-Concern

urofollitropin
DILI +VE (5-8), DILI -VE (-4) ([5]; in vivo): -VE

Where two headings read alike, the source gives them in different places.
